Our source for the IC50 values is patent US6589954B1, “Compounds and methods to treat cardiac failure and other disorders” (Scios, Inc., priority 1998, dated 2003).

Amino acid sequences for entries named in this document (tags omitted).
UniProt Q16539, whole entry: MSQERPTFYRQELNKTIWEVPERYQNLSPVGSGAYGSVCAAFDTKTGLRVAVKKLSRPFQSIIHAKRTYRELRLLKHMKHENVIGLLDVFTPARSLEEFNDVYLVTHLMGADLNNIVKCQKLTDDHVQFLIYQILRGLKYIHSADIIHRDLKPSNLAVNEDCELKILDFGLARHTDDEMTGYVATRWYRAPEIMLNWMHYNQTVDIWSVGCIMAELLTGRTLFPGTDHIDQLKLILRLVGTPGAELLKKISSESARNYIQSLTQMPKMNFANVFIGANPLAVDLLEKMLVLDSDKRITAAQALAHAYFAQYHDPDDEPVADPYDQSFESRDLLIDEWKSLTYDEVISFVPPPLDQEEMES

This experiment has as its target p38α (Homo sapiens, UniProt Q16539). As to the kind of experiment: Assay for p38 kinase inhibition (p38α).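 Also: radiometric p38 kinase assay, peptide substrate phosphorylation with γ-32P-ATP, 40 min at room temperature, incorporated counts measured by scintillation, inhibition relative to uninhibited kinase activity.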 The format is biochemical. The following applies: read-out: IC50, inhibition of p38α; Table 5.

For the compound `O=C(c1ccc2c(ccn2Cc2ccncc2)c1)N1CCC(Cc2ccccc2)CC1`, the IC50 (usually the concentration needed to halve the response being measured) was 800 nM.
